Values quoted from earlier work as cited in US7993650B2, “Polypeptides having binding affinity for HER2” (Affibody AB, priority 2003, dated 2011).

Key:
[1] = tested on: SK-BR-3 breast cancer cells overexpressing HER2 protein; details: compared to control monoclonal antibody; cited from earlier work
[2] = tested on: human breast and ovarian cancers (xenografts) that overexpress HER2; details: mouse, in vivo; cited from earlier work

## 4D5: murine anti-HER2 monoclonal antibody 4D5, or trastuzumab, marketed under the trade name Herceptin
[1]
  tumor cell proliferation: inhibit tumor cell proliferation
[2]
  tumor-free survival time: prolonged their tumor-free survival time
